PubChem BioAssay AID1663 (Broad Institute, 2009)
This is a selection; strong and weak results do not stand in their true shares. Some salts and complexes are drawn in separate pieces, as the source files them; their charges need not balance. Calls of active or inactive are those of the source.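 How the source made its calls: active means mean replicate score, as percent of positive control, at or above 50; inconclusive means mean below 50 but at least one replicate at or above 50; inactive means mean and every replicate below 50.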

Test: inhibitors of platelet dense granule secretion, primary screen, cell-based, MLPCN, human platelets (AID 1663)
Conditions: human platelet-rich plasma, SFLLRN dense granule ATP release, luminescence; active compounds read high;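 compounds screened at 7.5 µM in platelet-rich plasma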

Row | SMILES | inhibition
1 | COc1ccc(OP(C)(=O)Nc2ccc(Br)cc2)cc1 (centres undefined) | inactive: -1.68%
2 | CP(=O)(Oc1ccccc1)N1CCOC1=O (centres undefined) | inactive: 10.9%
3 | CCc1ccc(OP(C)(=O)Nc2cccnc2)cc1 (centres undefined) | inactive: -27.1%
4 | COc1ccccc1OP(C)(=O)Nc1c(C)n(C)n(-c2ccccc2)c1=O (centres undefined) | inactive: 2.77%
5 | O=C(OCCCN1CCCC1)C(O)(c1ccccc1)C1CCCCC1 (centres undefined) | inactive: 3.78%
6 | CP(=O)(Nc1ccc(Cl)cc1)Oc1ccc(F)cc1 (centres undefined) | inactive: -1.42%
7 | CC(C)(C)c1ccc(OP(C)(=O)O)cc1 | inactive: 4.23%
8 | COc1ccccc1OP(C)(=O)Nc1ccccc1Br (centres undefined) | inactive: 3.68%
9 | CN(C)C(=O)c1c([N+](=O)[O-])cc([N+](=O)[O-])cc1[N+](=O)[O-] | inactive: 6.06%
10 | COc1ccccc1OP(C)(=O)Nc1ccc(Br)cc1 (centres undefined) | inactive: -3.9%
11 | CN(C)CCOC(=O)C(O)(c1ccccc1)C1CCCC1 (centres undefined) | inactive: 1.12%
12 | COc1ccc(OP(C)(=O)Nc2ccccn2)cc1 (centres undefined) | inactive: -12.5%
13 | O=[N+]([O-])c1cc([N+](=O)[O-])c(Nc2ccccn2)c([N+](=O)[O-])c1 | inactive: -4.58%
14 | Cc1c(NP(C)(=O)Oc2ccc(C(C)C)cc2)c(=O)n(-c2ccccc2)n1C (centres undefined) | inactive: 0.442%
15 | CCc1ccc(OP(C)(=O)O)cc1 | inactive: 20.8%
16 | CP(=O)(Nc1ccccn1)Oc1ccccc1 (centres undefined) | inactive: 0.688%
17 | COc1ccccc1OP(C)(=O)Nc1ccc(C)cc1C (centres undefined) | inactive: 8.82%
18 | Cc1cc(C)cc(OP(C)(=O)Nc2cccc(C(F)(F)F)c2)c1 (centres undefined) | inactive: 1.75%
19 | COc1ccc(OP(C)(=O)Nc2ccccc2Br)cc1 (centres undefined) | inactive: -12.2%
20 | COc1ccccc1OP(C)(=O)Nc1ccc(C)c(C)c1 (centres undefined) | inactive: 5.3%
21 | Cc1nc2ccc3ccccc3c2o1.O=[N+]([O-])c1cc([N+](=O)[O-])c(O)c([N+](=O)[O-])c1 | inactive: -6.4%
22 | CP(=O)(OCCOc1ccccc1)OCCOc1ccccc1 | inactive: 3.96%

Row | SMILES | inhibition
23 | CP(=O)(Nc1ccc(Cl)cc1Cl)Oc1ccccc1 (centres undefined) | inactive: 0.251%
24 | COc1ccc(OP(C)(=O)Nc2ccc(SC(F)(F)F)cc2)cc1 (centres undefined) | inactive: -4.46%
25 | CCOC(=O)c1ccc(NP(C)(=O)Oc2ccc(F)cc2)cc1 (centres undefined) | inactive: 8.8%
26 | CCN(CC)CCCOC(=O)C(O)(c1ccccc1)C1CCCCC1 (centres undefined) | inactive: 0.784%
27 | O=[N+]([O-])c1cc([N+](=O)[O-])c(OC2CCCCC2O)c([N+](=O)[O-])c1 (centres undefined) | inactive: -2.14%
28 | CCCCCOc1ccc(NP(C)(=O)Oc2ccc(Cl)cc2Cl)cc1 (centres undefined) | inactive: 2.49%
29 | CP(=O)(Nc1ccccc1)Oc1ccc(F)cc1 (centres undefined) | inactive: 13.2%
30 | CC(C)c1ccc(OP(C)(=O)Nc2ccc(SC(F)(F)F)cc2)cc1 (centres undefined) | inactive: 19.6%
31 | CP(=O)(Nc1ccccc1F)Oc1ccccc1 (centres undefined) | inactive: 6.98%
32 | O=C(OCCN1CCN(CCOCc2ccccc2)CC1)C(O)(c1ccccc1)c1ccccc1 | inactive: -16.3%
33 | O=C(OC1CN2CCC1CC2)c1ccc([N+](=O)[O-])cc1 (centres undefined) | inactive: -8.29%
34 | COc1ccc2c(c1O)-c1c(O)c(OC)cc3c1[C@H](C2)[N+](C)(C)CC3.O=[N+]([O-])c1cc([N+](=O)[O-])c([O-])c([N+](=O)[O-])c1[O-] | inactive: -0.406%
35 | CP(=O)(Nc1ccc(SC(F)(F)F)cc1)Oc1ccc(F)cc1 (centres undefined) | inactive: -11.7%
36 | CCOP(C)(=S)SCC(=O)NC(C)(CC)C(=O)O (centres undefined) | inactive: -1.79%
37 | CP(=O)(Nc1ccc2c(c1)OCCO2)Oc1ccccc1 (centres undefined) | inactive: -0.484%
38 | Cc1ccccc1NP(C)(=O)Nc1ccccc1C | inactive: -9.39%
39 | COc1ccc(OP(C)(=O)Nc2cccc(Br)c2)cc1 (centres undefined) | inactive: -2.42%
40 | COc1ccc(NP(C)(=O)Oc2ccccc2OC)cc1 (centres undefined) | inactive: -0.16%
41 | CN(C)CCOC(=O)C(O)(c1ccccc1)C1CCCCC1 (centres undefined) | inactive: 0.466%
42 | Cc1cc(-c2cccc3ccccc23)c(C)cn1.O=[N+]([O-])c1cc([N+](=O)[O-])c(O)c([N+](=O)[O-])c1 | inactive: 4.35%
43 | O=[N+]([O-])c1cc([N+](=O)[O-])c(NCC2CCS(=O)(=O)C2)c([N+](=O)[O-])c1 (centres undefined) | inactive: -2.98%
44 | O=[N+]([O-])c1ccc(OP2(=O)COCCO2)cc1 (centres undefined) | inactive: 2.9%
